Values of other authors as cited in paper PMC5045922, “In vivo pharmacological activity and biodistribution of S-nitrosophytochelatins after intravenous and intranasal administration in mice” (Nitric Oxide, 2016).

How the values were obtained:
[1] = set-up: method as in PMID 15901798, PMID 15295794, PMID 19646492; details: intravenous bolus 0.001–0.3 μmol/kg, cited from earlier work
[2] = set-up: method as in PMID 15901798, PMID 15295794; details: i.v. 1.5 μmol NO/kg; cited from earlier work

Question: Which “decrease in blood pressure with co-administration of low molecular weight thiols” value ([1]; co-administration of low molecular weight thiols) does the source give for S-nitroso albumin [AlbSNO] here?
Answer: ~60%

Question: What about the “decrease in blood pressure compared to baseline” value [1] of the same substance?
Answer: ~35%

Question: What about the “tmax for plasma nitrites” value [2] of the same substance?
Answer: ~10 min
